{"sequences": {"note": "Protein sequences, listed by entry. Tags and fused reporters are not part of them.", "UniProt Q60613, whole entry": "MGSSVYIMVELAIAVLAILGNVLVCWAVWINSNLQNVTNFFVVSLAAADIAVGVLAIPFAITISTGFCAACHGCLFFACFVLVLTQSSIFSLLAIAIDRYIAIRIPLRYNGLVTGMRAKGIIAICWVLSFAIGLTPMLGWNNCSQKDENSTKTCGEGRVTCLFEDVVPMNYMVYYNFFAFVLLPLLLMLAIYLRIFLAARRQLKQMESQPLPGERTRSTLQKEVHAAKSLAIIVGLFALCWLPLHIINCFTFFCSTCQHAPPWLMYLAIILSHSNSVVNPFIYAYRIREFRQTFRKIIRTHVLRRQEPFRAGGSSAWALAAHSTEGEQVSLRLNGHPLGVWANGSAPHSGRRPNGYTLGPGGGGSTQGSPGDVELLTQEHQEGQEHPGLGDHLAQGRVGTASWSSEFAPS", "UniProt P0DMS8, whole entry": "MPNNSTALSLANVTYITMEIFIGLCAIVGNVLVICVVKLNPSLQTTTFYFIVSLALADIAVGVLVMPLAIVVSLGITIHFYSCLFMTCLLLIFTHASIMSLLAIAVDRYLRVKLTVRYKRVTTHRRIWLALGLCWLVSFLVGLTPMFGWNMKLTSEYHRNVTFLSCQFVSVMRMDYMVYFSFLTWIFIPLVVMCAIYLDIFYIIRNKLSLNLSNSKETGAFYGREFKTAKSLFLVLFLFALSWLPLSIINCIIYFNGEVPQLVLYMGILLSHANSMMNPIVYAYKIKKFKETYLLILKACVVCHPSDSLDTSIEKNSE", "UniProt P30536, whole entry": "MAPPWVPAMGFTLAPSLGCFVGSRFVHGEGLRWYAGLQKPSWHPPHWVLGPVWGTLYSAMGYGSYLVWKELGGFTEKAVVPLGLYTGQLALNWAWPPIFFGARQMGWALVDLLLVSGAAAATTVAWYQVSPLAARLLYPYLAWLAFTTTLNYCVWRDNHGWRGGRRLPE", "UniProt Q60612, whole entry": "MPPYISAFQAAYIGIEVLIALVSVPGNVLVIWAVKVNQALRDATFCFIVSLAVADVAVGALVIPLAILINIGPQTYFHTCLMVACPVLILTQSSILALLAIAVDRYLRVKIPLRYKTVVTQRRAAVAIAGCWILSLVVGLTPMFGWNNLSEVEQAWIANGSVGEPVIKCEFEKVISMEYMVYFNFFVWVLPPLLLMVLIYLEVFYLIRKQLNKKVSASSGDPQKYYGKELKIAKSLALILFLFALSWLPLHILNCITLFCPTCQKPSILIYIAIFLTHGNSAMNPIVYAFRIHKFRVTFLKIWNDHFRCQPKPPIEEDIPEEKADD"}, "source": "ChEMBL document CHEMBL4368904", "about": "(J Med Chem, 2019)", "key": {"[1]": {"biological_target": "Adenosine receptor A2a (Mus musculus) (UniProt Q60613)", "test": "Displacement of [3H]2-[p-(2-carboxyethyl)phenylethylamino]-5-N-ethylcarboxamidoadenosine from mouse A2A adenosine receptor expressed in HEK293 cell membranes at 10 uM after 60 mins by scintillation proximity assay relative to adenosine 5-N-ethyluronamide"}, "[2]": {"biological_target": "Adenosine receptor A3 (Homo sapiens, UniProt P0DMS8)", "conditions": "10 uM"}, "[3]": {"biological_target": "T1, Adenosine receptor A3 (Mus musculus, UniProt Q61618)", "T1 sequence (Q61618 whole entry)": "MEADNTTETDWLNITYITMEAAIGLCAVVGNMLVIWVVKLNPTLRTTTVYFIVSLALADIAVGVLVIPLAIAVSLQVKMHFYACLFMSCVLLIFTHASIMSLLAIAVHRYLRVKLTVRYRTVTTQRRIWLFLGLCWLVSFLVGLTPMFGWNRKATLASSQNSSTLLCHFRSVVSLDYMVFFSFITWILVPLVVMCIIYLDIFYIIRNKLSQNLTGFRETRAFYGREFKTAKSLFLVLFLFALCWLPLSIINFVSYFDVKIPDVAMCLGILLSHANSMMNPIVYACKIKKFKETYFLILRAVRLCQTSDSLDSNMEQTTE", "test": "Displacement of [125I]N6-(4-amino-3-iodobenzyl)adenosine-5-N-methyluronamide from mouse A3A adenosine receptor expressed in CHO cell membranes after 60 mins by scintillation proximity assay"}, "[4]": {"biological_target": "Translocator protein (Homo sapiens, UniProt P30536)", "test": "Inhibition of TSPO (unknown origin)"}, "[5]": {"biological_target": "Adenosine receptor A1 (Mus musculus) (UniProt Q60612)", "test": "Agonist activity at mouse A1A adenosine receptor at 10 uM after 60 mins by [35S]GTPgammaS binding assay relative to (2S,3S,4R,5R)-5-(6-amino-9H-purin-9-yl)-N-ethyl-3,4-dihydroxytetrahydrofuran-2-carboxamide", "assay_type": "functional"}, "[6]": {"biological_target": "Adenosine receptor A2a (Mus musculus, UniProt Q60613)", "test": "Displacement of [3H]2-[p-(2-carboxyethyl)phenylethylamino]-5-N-ethylcarboxamidoadenosine from mouse A2A adenosine receptor expressed in HEK293 cell membranes after 60 mins by scintillation proximity assay"}}, "note": "pKi: −log10 of the molar value.", "data": [{"smiles": "O[C@@H]1[C@H](O)[C@@H]2C[C@@H]2[C@H]1n1cnc2c(NC(C3CC3)C3CC3)nc(Cl)nc21", "values": [{"measurement": "inhibition", "setting": "[1]", "value": 34, "unit": "%"}, {"measurement": "Emax", "setting": "[2]", "value": 50, "unit": "%"}, {"measurement": "pKi", "setting": "[3]", "value": 5.97}]}, {"smiles": "CCOC(=O)[C@@]12C[C@@H]1[C@@H](n1cnc3c(NC(C4CC4)C4CC4)nc(Cl)nc31)[C@H](O)[C@@H]2O", "values": [{"measurement": "pKi", "setting": "[4]", "value": 5.60}]}, {"smiles": "OC[C@H]1O[C@@H](n2cnc3c(NC(C4CCC4)C4CCC4)ncnc32)[C@H](O)[C@@H]1O", "values": [{"measurement": "Emax", "setting": "[5]", "value": 101, "unit": "%"}]}, {"smiles": "O[C@@H]1[C@H](O)[C@@H](CCl)O[C@H]1n1cnc2c(NC3C[C@H]4CC[C@@H]3C4)ncnc21", "note": "(mixture of isomers)", "values": [{"measurement": "pKi", "setting": "[6]", "value": 5.40}]}]}
